Measured values published in ChEMBL document CHEMBL1122439, “Conformational requirements for histamine H2-receptor inhibitors: a structure-activity study of phenylene analogues related to cimetidine and tiotidine” (J Med Chem, 1983).

Protein sequences, listed by entry. Tags and fused reporters are not part of them.
UniProt P47747, whole entry: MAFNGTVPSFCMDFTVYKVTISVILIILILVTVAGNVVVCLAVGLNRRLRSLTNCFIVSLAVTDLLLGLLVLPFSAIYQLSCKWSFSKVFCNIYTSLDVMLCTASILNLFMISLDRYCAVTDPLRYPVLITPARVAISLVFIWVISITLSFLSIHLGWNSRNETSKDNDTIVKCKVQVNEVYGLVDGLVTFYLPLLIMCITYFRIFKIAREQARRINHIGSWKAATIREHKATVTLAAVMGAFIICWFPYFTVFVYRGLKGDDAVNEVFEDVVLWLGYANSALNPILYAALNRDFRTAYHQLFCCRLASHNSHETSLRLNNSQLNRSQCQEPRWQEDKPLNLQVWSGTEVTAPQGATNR

Molecular target: Histamine H2 receptor (Cavia porcellus, UniProt P47747)
Experiment: Evaluated in vitro for Histamine H2 receptor inhibition using the dimaprit stimulated chronotropic response of the guinea pig atrium
Type: tissue-based, Cardiac atrium
Method in brief: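 Isolated guinea pig atria; chronotropic response to rising concentrations of H2 agonist dimaprit (10⁻⁷–10⁻⁴ M) in presence of test agent; three to four atria per test concentration; -log K_I = log(ED50 dose ratio − 1) − log(drug dose).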

Ki: 31.6 nM
SMILES: CNC(=NCCSCc1csc(N=C(N)N)n1)NC#N [TIOTIDINE]
